Experimental findings from patent US11242337B2, “Compounds useful for treating gastrointestinal tract disorders” (Ardelyx, Inc., priority 2017, dated 2022) are described below.

Assay [1] deals with T1, NHE3 (Homo sapiens, UniProt P48764).
T1 construct: expressed in transfected cells
T1 sequence (P48764 26-834): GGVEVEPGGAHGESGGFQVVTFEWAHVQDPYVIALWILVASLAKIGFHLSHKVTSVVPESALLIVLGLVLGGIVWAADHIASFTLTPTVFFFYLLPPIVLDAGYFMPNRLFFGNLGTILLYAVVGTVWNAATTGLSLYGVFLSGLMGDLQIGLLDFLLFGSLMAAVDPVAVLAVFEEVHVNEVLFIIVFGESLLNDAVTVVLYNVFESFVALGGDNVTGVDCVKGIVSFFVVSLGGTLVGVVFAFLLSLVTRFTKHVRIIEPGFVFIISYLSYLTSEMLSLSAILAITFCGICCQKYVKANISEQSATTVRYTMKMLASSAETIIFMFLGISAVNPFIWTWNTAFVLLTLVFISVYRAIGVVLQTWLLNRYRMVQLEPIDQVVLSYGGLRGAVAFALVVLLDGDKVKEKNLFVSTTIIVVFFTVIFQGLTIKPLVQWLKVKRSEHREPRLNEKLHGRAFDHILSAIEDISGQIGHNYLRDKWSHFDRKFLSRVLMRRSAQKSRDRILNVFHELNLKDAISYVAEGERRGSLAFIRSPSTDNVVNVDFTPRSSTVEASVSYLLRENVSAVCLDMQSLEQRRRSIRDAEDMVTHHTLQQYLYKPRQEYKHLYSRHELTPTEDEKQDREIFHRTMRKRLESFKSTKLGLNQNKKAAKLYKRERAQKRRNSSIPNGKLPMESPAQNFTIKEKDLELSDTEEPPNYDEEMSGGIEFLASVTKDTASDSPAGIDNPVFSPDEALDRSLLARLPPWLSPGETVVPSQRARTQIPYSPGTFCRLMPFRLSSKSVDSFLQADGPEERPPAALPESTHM
T1 sequence (Q99653 2-195 partner limits assumed): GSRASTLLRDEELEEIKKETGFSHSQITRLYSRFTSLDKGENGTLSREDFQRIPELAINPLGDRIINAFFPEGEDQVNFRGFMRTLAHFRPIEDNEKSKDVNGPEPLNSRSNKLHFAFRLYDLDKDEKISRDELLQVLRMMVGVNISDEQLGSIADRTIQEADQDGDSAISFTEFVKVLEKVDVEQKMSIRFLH
The experiment in a line: Cell-based assay of NHE-3 activity (pre-incubation inhibition), human. The conditions noted are these: human Preincubation, 0-30 μM test compound. The procedure: Rat and human NHE-3-mediated Na^+-dependent H^+ antiport was measured using a modification of the pH sensitive dye method originally reported by Paradiso (Proc. Natl. Acad. Sci. USA. (1984) 81(23): 7436-7440). PS120 fibroblasts stably expressing human NHE3 and NHERF2 were obtained from Mark Donowitz (Baltimore, Md.). Opossum kidney (OK) cells were obtained from the ATCC and propagated per their instructions. The rat NHE-3 gene (GenBank M85300) was introduced into OK cells via electroporation, and cells were seeded into 96 well plates and grown overnight. Medium was aspirated from the wells then incubated for 30 min at 37° C. with NH4Cl-HEPES buffer (20 mM NH4Cl, 80 mM NaCl, 50 mM HEPES, 5 mM KCl, 2 mM CaCl2, 1 mM MgCl2, pH 7.4) containing 5 μM BCECF-AM. Cells were washed once with Ammonium free, Na^+-free HEPES (100 mM choline, 50 mM HEPES, 10 mM glucose, 5 mM KCl, 2 mM CaCl2, 1 mM MgCl2, pH 7.4) and incubated in the same buffer for 10 minutes at room temperature to lower intracellular pH with 0-30 μM test compound. […] Changes in intracellular pH were monitored using a FLIPR Tetra® (Molecular Devices, Sunnyvale, Calif.) by excitation at λex 439 to 505 nm, and measuring BCECF fluorescence at λem 538 nm. The initial rate of the fluorescence ratio change was used as a measure of NHE-mediated Na^+/H^+ activity, and reported as the change in fluorescence ratio per minute.

Assay [2] concerns the target T1, NHE3. In words: Cell-based assay of NHE-3 activity (persistent inhibition), human. The note with it: human Persistence, 60 min incubation then washout. On the procedure: The ability of compounds to inhibit human and rat NHE-3-mediated Na^+ dependent H^+ antiport after application and washout was measured using a modification of the pH sensitive dye method described above. PS120 fibroblasts stably expressing human NHE3 and NHERF2 were obtained from Mark Donowitz (Baltimore, Md.). Opossum kidney (OK) cells were obtained from the ATCC and propagated per their instructions. The rat NHE-3 gene was introduced into OK cells via electroporation, and cells were seeded into 96 well plates and grown overnight. Medium was aspirated from the wells, cells were washed once with NaCl-HEPES buffer (100 mM NaCl, 50 mM HEPES, 10 mM glucose, 5 mM KCl, 2 mM CaCl2, 1 mM MgCl2, pH 7.4), then overlayed with NaCl-HEPES buffer containing 0-30 μM test compound. After a 60 min incubation at room temperature, the test drug containing buffer was aspirated from the cells. […] Changes in intracellular pH were monitored using a FLIPR Tetra® (Molecular Devices, Sunnyvale, Calif.) by excitation at λex 439 to 505 nm, and measuring BCECF fluorescence at λem 538 nm. The initial rate of the fluorescence ratio change was used as a measure of NHE-mediated Na^+/H^+ activity, and reported as the change in fluorescence ratio per minute.

For the substance “3-[2-(2-[2-[(4-[[(1S,2S)-4,6-Dichloro-2-[(3R)-3-[methyl(propan-2-yl)amino]piperidin-1-yl]-2,3-dihydro-1H-inden-1-yl]oxy]benzene) sulfonamido]ethoxy]ethoxy)ethyl]-1-[4-([[2-(2-[2-[(4-[[(1S,2S)-4,6-dichloro-2-[(3R)-3-[methyl(propan-2-yl)amino]piperidin-1-yl]-2,3-dihydro-1H-inden-1-yl]oxy]benzene)sulfonamido]ethoxy]ethoxy)ethyl]carbamoyl]amino)butyl]urea; bis(trifluoroacetic acid) [Example 78]”, the pIC50 result against NHE3 [1] and on NHE3 [2] was “C (NHE3 pIC50 > 7)” throughout.
